Consider 26 molecules from patent US12091425B2 (AMGEN INC., priority 2016, dated 2024).

Protein sequences, listed by entry. Tags and fused reporters are not part of them. Residues count along the entry.
UniProt Q07820, 171-327 limits assumed: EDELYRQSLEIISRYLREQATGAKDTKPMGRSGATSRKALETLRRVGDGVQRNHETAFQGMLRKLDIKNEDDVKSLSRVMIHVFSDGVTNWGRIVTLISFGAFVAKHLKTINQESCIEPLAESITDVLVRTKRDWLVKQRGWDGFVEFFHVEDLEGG

Read-outs that look alike come from different tables or passages of the source.

Test [1] has as its target Mcl-1/Bim interaction, recombinant human Mcl-1 (171-327) (Homo sapiens, UniProt Q07820). Put plainly: Cell free Mcl-1: Bim Affinity Assay (Mcl-1 HTRF). The class given is binding. Particulars: read-out: Mcl-1 HTRF. Background: Time-resolved FRET reads energy transfer from a long-lived donor to a nearby acceptor.
For test [2], the system named is OPM-2 human multiple myeloma cell line. Put plainly: Cell Viability Assay (OPM-2 10 FBS). The settings on record: read-out: OPM-2 10% FBS, OPM-2 cells, 16 h, CellTiter-Glo. Format: cell-based.
Setting [3] is: cell free Mcl-1:Bim TR-FRET, recombinant human Mcl-1 (171-327).
The mark [4] stands for this setting: TR-FRET, 0.1 nM Mcl-1 (171-327), 0.05 nM biotin-Bim (51-76).

On to `CC1COC2CC1OCCS(=O)(=O)NC(=O)c1ccc3c(c1)N(C[C@@H]1CC[C@@H]21)C[C@@]1(CCCc2cc(Cl)ccc21)CO3` (single isomer, unassigned), for which the IC50 in test [1] (setting [3]) turned out to be 2.48 nM; in test [2] it was 5.83 µM.

As to `CO[C@H]1/C=C/CC(O)C(C)S(=O)(=O)NC(=O)c2ccc3c(c2)N(C[C@@H]2CC[C@H]21)C[C@@]1(CCCc2cc(Cl)ccc21)CO3` (single isomer, unassigned), the IC50 in test [1] (setting [3]) was 1.46 nM; in test [2], 1.82 µM.

`O=C1NS(=O)(=O)CC(c2ccccc2)CCC[C@H](O)[C@@H]2CC[C@H]2CN2C[C@@]3(CCCc4cc(Cl)ccc43)COc3ccc1cc32` (single isomer, unassigned): the IC50 in test [1] (setting [3]) was 28 nM; in test [2] it was 22.8 µM.

For `CO[C@H]1/C=C/C[C@H](C(C)O)[C@@H](C)S(=O)(=O)NC(=O)c2ccc3c(c2)N(C[C@@H]2CC[C@H]21)C[C@@]1(CCCc2cc(Cl)ccc21)CO3` (single isomer, unassigned) [Example 3], the IC50 in test [1] (setting [4]) was 0.518 nM; in test [2] it was 0.461 µM.

With `CO[C@H]1/C=C/C[C@H](C(C)O)[C@@H](C)S(=O)(=O)NC(=O)c2ccc3c(c2)N(C[C@@H]2CC[C@H]21)C[C@@]1(CCCc2cc(Cl)ccc21)CO3` (single isomer, unassigned) [Example 4], the IC50 amounted to 1.09 nM in test [1] (setting [4]) and 0.298 µM in test [2].

As for `O=C1NS(=O)(=O)N(CC2CCO2)CC/C=C/[C@H](O)[C@@H]2CC[C@H]2CN2C[C@@]3(CCCc4cc(Cl)ccc43)COc3ccc1cc32` (single isomer, unassigned) [Example 38], the IC50 in test [1] (setting [4]) was 0.549 nM; in test [2], 0.78 µM.

Regarding `O=C1NS(=O)(=O)N(CC2CCO2)CC/C=C/[C@H](O)[C@@H]2CC[C@H]2CN2C[C@@]3(CCCc4cc(Cl)ccc43)COc3ccc1cc32` (single isomer, unassigned) [Example 39], the results for the IC50 in test [1] (setting [4]) and in test [2] were 0.65 nM and 0.873 µM, respectively.

For the molecule `O=C1NS(=O)(=O)C(CC2CC2)CCC=C[C@H](O)[C@@H]2CC[C@H]2CN2C[C@@]3(CCCc4cc(Cl)ccc43)COc3ccc1cc32` (single isomer, unassigned) [Example 158], the IC50 is 7.59 nM in test [1] (setting [4]) and 9.36 µM in test [2].

With `O=C1NS(=O)(=O)C(CC2CC2)CCC=C[C@H](O)[C@@H]2CC[C@H]2CN2C[C@@]3(CCCc4cc(Cl)ccc43)COc3ccc1cc32` (single isomer, unassigned) [Example 159], the IC50 came out at 2.66 nM in test [1] (setting [4]) and 3.31 µM in test [2].

Take `C[C@H]1C/C=C/[C@H](O)[C@@H]2CC[C@H]2CN2C[C@@]3(CCCc4cc(Cl)ccc43)COc3ccc(cc32)C(=O)NS(=O)(=O)C1CC1CCCO1` (single isomer, unassigned) [Example 167]: the IC50 in test [1] (setting [4]) stood at 0.251 nM; in test [2], 0.122 µM.

`C[C@H]1C/C=C/[C@H](O)[C@@H]2CC[C@H]2CN2C[C@@]3(CCCc4cc(Cl)ccc43)COc3ccc(cc32)C(=O)NS(=O)(=O)C1CC1CCCO1` (single isomer, unassigned) [Example 168]: the IC50 in test [1] (setting [4]) was 0.255 nM; in test [2], 0.107 µM.

Turning to `CC1C/C=C/[C@H](O)[C@@H]2CC[C@H]2CN2C[C@@]3(CCCc4cc(Cl)ccc43)COc3ccc(cc32)C(=O)NS(=O)(=O)C1CC1CCOCC1` (single isomer, unassigned) [Example 188], the IC50 in test [1] (setting [4]) was 11.4 nM; in test [2] it was 3.9 µM.

For `CC1C/C=C/[C@H](O)[C@@H]2CC[C@H]2CN2C[C@@]3(CCCc4cc(Cl)ccc43)COc3ccc(cc32)C(=O)NS(=O)(=O)C1CC1CCOCC1` (single isomer, unassigned) [Example 189], the IC50 came out at 3.48 nM in test [1] (setting [4]) and 1.21 µM in test [2].

As for `CC1C/C=C\[C@@H](O)[C@@H]2CC[C@H]2CN2C[C@@]3(CCCc4cc(Cl)ccc43)COc3ccc(cc32)C(=O)NS(=O)(=O)C1` (single isomer, unassigned) [Example 232], the results for the IC50 in test [1] (setting [4]) and in test [2] were 1.64 nM and 3.47 µM, respectively.

Take `CC1C/C=C\[C@@H](O)[C@@H]2CC[C@H]2CN2C[C@@]3(CCCc4cc(Cl)ccc43)COc3ccc(cc32)C(=O)NS(=O)(=O)C1` (single isomer, unassigned) [Example 233]: the IC50 in test [1] (setting [4]) amounted to 4.66 nM; in test [2] it was 4.7 µM.

As to `C/C1=C\C(O)[C@@H]2CC[C@H]2CN2C[C@@]3(CCCc4cc(Cl)ccc43)COc3ccc(cc32)C(=O)NS(=O)(=O)CCC1` (single isomer, unassigned) [Example 238], the IC50 is 1.57 nM in test [1] (setting [4]) and 17.6 µM in test [2].

For `COC(=O)C(C(=O)OC)C1CC(O)[C@@H]2CC[C@H]2CN2C[C@@]3(CCCc4cc(Cl)ccc43)COc3ccc(cc32)C(=O)NS(=O)(=O)[C@H](C)[C@@H](C)C1` (single isomer, unassigned) [Example 244], the figures for the IC50 in test [1] (setting [4]) and in test [2] were 2.13 nM and 0.41 µM, respectively.

Turning to `COC(=O)C(C(=O)OC)C1CC(O)[C@@H]2CC[C@H]2CN2C[C@@]3(CCCc4cc(Cl)ccc43)COc3ccc(cc32)C(=O)NS(=O)(=O)[C@H](C)[C@@H](C)C1` (single isomer, unassigned) [Example 245], the IC50 in test [1] (setting [4]) was 12 nM; in test [2], 6.1 µM.

As to `C[C@@H]1[C@@H](C)CC(N(C)C)CC(O)[C@@H]2CC[C@H]2CN2C[C@@]3(CCCc4cc(Cl)ccc43)COc3ccc(cc32)C(=O)NS1(=O)=O` (single isomer, unassigned) [Example 247], the values for the IC50 in test [1] (setting [4]) and in test [2] were 12.9 nM and 31.2 µM, respectively.

As to `CNC1CC(O)[C@@H]2CC[C@H]2CN2C[C@@]3(CCCc4cc(Cl)ccc43)COc3ccc(cc32)C(=O)NS(=O)(=O)[C@H](C)[C@@H](C)C1` (single isomer, unassigned) [Example 256], the IC50 in test [1] (setting [4]) was found to be 5.58 nM; in test [2] it was 27.8 µM.

Turning to `CNC1CC(O)[C@@H]2CC[C@H]2CN2C[C@@]3(CCCc4cc(Cl)ccc43)COc3ccc(cc32)C(=O)NS(=O)(=O)[C@H](C)[C@@H](C)C1` (single isomer, unassigned) [Example 257], the results for the IC50 in test [1] (setting [4]) and in test [2] were 4.56 nM and 17.8 µM, respectively.

Take `CC1CC[C@@H](C)S(=O)(=O)NC(=O)c2ccc3c(c2)N(C[C@@H]2CC[C@H]2C(O)C1)C[C@@]1(CCCc2cc(Cl)ccc21)CO3` (single isomer, unassigned) [Example 262]: the IC50 was 17.1 nM in test [1] (setting [4]) and 13.9 µM in test [2].

In the case of `CC1CC[C@@H](C)S(=O)(=O)NC(=O)c2ccc3c(c2)N(C[C@@H]2CC[C@H]2C(O)C1)C[C@@]1(CCCc2cc(Cl)ccc21)CO3` (single isomer, unassigned) [Example 264], the IC50 in test [1] (setting [4]) stood at 5.37 nM; in test [2], 31.1 µM.

For the molecule `CC1CC[C@H](C)S(=O)(=O)NC(=O)c2ccc3c(c2)N(C[C@@H]2CC[C@H]2C(O)C1)C[C@@]1(CCCc2cc(Cl)ccc21)CO3` (single isomer, unassigned) [Example 265], the IC50 was 0.285 nM in test [1] (setting [4]) and 0.0815 µM in test [2].

Take `CC1CC[C@H](C)S(=O)(=O)NC(=O)c2ccc3c(c2)N(C[C@@H]2CC[C@H]2C(O)C1)C[C@@]1(CCCc2cc(Cl)ccc21)CO3` (single isomer, unassigned) [Example 267]: the values for the IC50 in test [1] (setting [4]) and in test [2] were 4.04 nM and 1.53 µM, respectively.

Consider `CC1CC(O)[C@@H]2CC[C@H]2CN2C[C@@]3(CCCc4cc(Cl)ccc43)COc3ccc(cc32)C(=O)NS(=O)(=O)C[C@@H](C)C1` (single isomer, unassigned) [Example 268], for which the IC50 in test [1] (setting [4]) turned out to be 4.6 nM; in test [2] it was 3.62 µM.
